Details: about 2.5±1.0 mg/mL conjugate in 10 mM PBS buffer (pH=7.4), 37° C., shaker 100 rpm; daily ultrafiltration (30 k), free drug by HPLC; average release of free drug per day

In the case of “conjugate of phenyl N-(4-aminobutyl)-P-(4-(((3R,4R)-1-(2-cyanoacetyl)-4-methylpiperidin-3-yl)(methyl) amino)-7H-pyrrolo[2,3-d]pyrimidin-7-yl)phosphonamidate and HA”, the “Release rate (%/day)” value is reported as 1.03%/day.
